Antibody variant affinities, Ab-95 light chain, assay 2

Antigen: PDVDLGDISGINAS, a 14-residue peptide of the SARS-CoV-2 spike HR2 region.

Each scFv is VH, three GGGGS repeats, VL, as in the parent Ab-95, and differs from it in the CDRs of the light chain only.
VH: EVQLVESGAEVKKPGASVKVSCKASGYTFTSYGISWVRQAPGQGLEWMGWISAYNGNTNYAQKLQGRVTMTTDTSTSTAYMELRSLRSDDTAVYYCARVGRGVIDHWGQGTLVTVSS
VL: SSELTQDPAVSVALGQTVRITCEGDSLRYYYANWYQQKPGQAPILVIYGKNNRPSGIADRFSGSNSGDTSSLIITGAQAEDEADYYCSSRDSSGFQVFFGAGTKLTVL

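Phage display of a naive human antibody library on the peptide gave the parent. AAYL52 was designed without a model: most single CDR substitutions and a random sample of double and triple ones. Affinity was read by AlphaSeq, a pooled yeast mating assay with surface-displayed partners. Pairs that bind mate more often; barcode pairs of the diploids are counted by sequencing. Each replicate has its own calibration line, from reference interactions of the BCL2 family. There are three technical replicates.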

The parent's light chain CDRs are EGDSLRYYYAN, GKNNRPS, SSRDSSGFQVF; each variant's own CDRs replace them letter for letter. This list gathers variants with a substitution at S26 (VL, numbered from residue 1). Values are log10 of the apparent Kd in nM; lower means stronger binding. A mean of the replicates is given; it leaves out those without a signal. A pair that was not seen in that replicate is written "n.d."; this usually means weak binding, but a binder can also be missed. Parent in this assay: reference entry 2.31, copy in this library 2.25. Background: pairings of library AAYL52 with three empty control strains gave a value in 28% of cases (median 3.91, 5th percentile 2.90). Values in that range, when seen in few replicates, are hard to tell from nonspecific mating. For each scFv, signals with the empty controls are counted beside the result, with their mean in brackets.

CDR-L1	CDR-L2	CDR-L3	replicates, log10 nM	log10 Kd (nM), mean	signal with controls
KGDKLRYYYAN	GKNNRPS	SSRDSRGFQVF	4.26 3.83 n.d.	4.04	3/9 (4.22)
EGDPLRYYYAA	GKNNRPS	SSRDSSGFLVF	4.12 3.55 3.58	3.75	4/9 (4.10)
EGDELRYYYAP	GKNNRPS	FSRDSSGFQVF	3.70 n.d. 2.86	3.28	2/9 (3.69)
EGDHLRYYYAN	GKNNRHS	SSRDSSGFRVF	4.16 4.92 3.67	4.25	2/9 (3.80)
EGDWLRYYYAN	GKNNRPS	SCRDSSGWQVF	n.d. 3.88 n.d.	3.88	2/9 (4.29)
EGDALRYYMAN	GKNNRPS	SSRDSSGFSVF	2.82 2.62 2.51	2.65	3/9 (4.08)
EGDILRYYYAN	GTNNRPS	SSRDSSGFQSF	n.d. n.d. n.d.	n.d.	3/9 (2.97)
EGDKLRYYYAN	GKGNRPS	SSRDSSGFQVF	2.41 3.17 2.53	2.70	4/9 (4.37)
EGDCLRYYYAN	GKNNRPS	SSCDSSGFHVF	4.44 3.99 n.d.	4.21	6/9 (3.77)
EFDILRYYYAN	GDNNRPS	SSRDSSGFQVF	2.78 2.86 3.17	2.93	3/9 (3.68)
EGDPLRYYYAN	GKNNRPS	SSRDSSGFQVF	2.24 2.20 1.93	2.12	4/9 (3.47)
EGDHLRYYYAN	GKNNYPS	SSLDSSGFQVF	n.d. n.d. n.d.	n.d.	0/9
EGDMLRYYYAN	GKNNRPS	SSRDSSSFQVR	n.d. n.d. n.d.	n.d.	2/9 (4.13)
EGDELRYYYAN	GKNWRPS	SSRDSSGFQWF	n.d. 4.55 n.d.	4.55	0/9
MGDDLRYYYAN	NKNNRPS	SSRDSSGFQVF	3.47 4.36 n.d.	3.92	1/9 (3.68)
EKDELRYYYAN	GKNNRPS	SSRCSSGFQVF	3.52 n.d. n.d.	3.52	1/9 (3.80)
EGDWLRYYYAN	GKNNRPS	SQRDSSGFQVF	3.23 n.d. n.d.	3.23	1/9 (2.97)
EGDELRYYYAN	GKNNRTS	SSRDSSGCQVF	n.d. n.d. n.d.	n.d.	2/9 (3.99)
EGDGLRYYYAN	GKNNRPS	STRDSSGVQVF	2.60 3.45 2.74	2.93	3/9 (4.40)
EGDMLRYYYAN	GKNNRPS	SSRFSSGFQVI	n.d. n.d. n.d.	n.d.	2/9 (3.91)
EGDWLRYYYAN	GKNNRPS	SSRDSVEFQVF	n.d. n.d. n.d.	n.d.	2/9 (4.18)
EGDNLRYYYAA	GKNNRPS	SSRQSSGFQVF	n.d. n.d. n.d.	n.d.	3/9 (4.19)
EGDWLHYYYAN	GKSNRPS	SSRDSSGFQVF	3.78 3.12 n.d.	3.45	1/9 (4.11)
EGDTLRYYYAN	GNNNRPS	SSRDSSGFQKF	3.31 3.35 n.d.	3.33	4/9 (4.20)
EGDWLRYYYAN	GKNNRPS	SSEDSSGFQVY	3.93 4.32 3.91	4.05	3/9 (3.98)
VGDILRYYYAN	GKNNRPS	SSRDSSGFQVS	n.d. 4.20 3.76	3.98	0/9
EGDTLRYYEAN	GKNNRPS	SSRDSAGFQVF	1.77 1.73 1.62	1.70	2/9 (5.13)
EGDTLRYYYAN	GKSNRPS	NSRDSSGFQVF	3.72 3.40 n.d.	3.56	5/9 (4.23)
EGDILRYYYAN	DKNNRPS	SSRDSSSFQVF	3.85 n.d. n.d.	3.85	3/9 (4.97)
EGDKLRYYYAN	GKNNRPS	SSRDSKGFNVF	3.58 3.26 4.03	3.62	2/9 (3.61)
EGDYLRYYYAN	GKNNRPS	SSRDSSEFQNF	3.17 3.27 2.15	2.86	3/9 (3.73)
AGDNLRYYYAN	GKNNRPS	SSRDSSGFQSF	3.08 2.62 3.07	2.92	3/9 (4.39)
EGDTLRYYYAN	GKNNRPS	SSRDSSGAQVR	n.d. n.d. n.d.	n.d.	0/9
EGDNLRYKYAN	GKNNRPS	SSRDSSGFQVY	2.35 2.18 2.18	2.23	4/9 (3.87)
EGDKLRYYYAN	GKNNRQS	SSRDSSGFQVQ	5.07 5.60 3.84	4.84	6/9 (4.01)
EGCCLRYYYAN	GKNNRPS	SSTDSSGFQVF	4.57 3.37 n.d.	3.97	2/9 (3.51)
EGDFLRYYYAN	GKNNRPP	SSIDSSGFQVF	4.23 2.96 3.55	3.58	8/9 (3.93)
EGDNLRYYYAN	GKNNRPG	SSRDDSGFQVF	2.28 2.09 1.99	2.12	1/9 (3.75)
EGDNLRYYYAN	GSQNRPS	SSRDSSGFQVF	n.d. 4.13 n.d.	4.13	0/9
EGDMLLYYYAN	GKNNRPS	SSRDSSTFQVF	n.d. 3.60 n.d.	3.60	2/9 (3.97)
EGDALRYYYAN	AKNNRPS	SSRDSSGFQVF	3.50 n.d. 3.91	3.70	0/9
EGDTLAYYYAN	GKNNRPS	SSRDSSGPQVF	4.06 2.84 3.03	3.31	7/9 (3.87)
ERDDLRYYYAN	GKNNIPS	SSRDSSGFQVF	n.d. 4.26 n.d.	4.26	4/9 (4.55)
EGDLLRYYYAN	RKNNRPS	SSRDSSGFQVF	n.d. n.d. n.d.	n.d.	0/9
EGDATRYYYAN	GKNNRNS	SSRDSSGFQVF	3.03 4.48 4.23	3.91	2/9 (4.04)
EGDHLRYYYAN	QKNNRPS	SSRDSSGSQVF	3.14 n.d. n.d.	3.14	1/9 (3.99)
EGDGLRYYYAN	GKNNRLS	FSRDSSGFQVF	2.62 2.69 3.18	2.83	4/9 (4.26)
EGDILRYYYAN	GKNNRPS	SSSDSSGFQVF	4.20 3.85 n.d.	4.02	4/9 (3.30)
EGDCLRYYYAN	GKANRSS	SSRDSSGFQVF	3.57 5.84 n.d.	4.71	6/9 (4.06)
EGDFLRYFYAN	GKNNKPS	SSRDSSGFQVF	n.d. n.d. n.d.	n.d.	2/9 (3.80)

Data: MIT Lincoln Laboratory AlphaSeq set, Engelhart et al. 2022, doi:10.1038/s41597-022-01779-4, as distributed in FLAb.